In PubChem BioAssay (NCI) one finds growth inhibition data, which are given here for 8 molecules.

The experiment is described as follows: NCI Yeast Anticancer Drug Screen. Data for the rad18 strain (AID 177). To be noted: S. cerevisiae rad18 mutant growth inhibition, stronger effect = higher value. The procedure: Growth inhibition of yeast strains with defined genetic alterations is measured as a screen for potential anti-cancer activity. Selected strains with alterations in DNA damage repair or cell cycle control were exposed to compounds and growth inhibition was measured relative to vehicle treated controls. The strain used in this assay is rad18

This is a selection; strong and weak results do not stand in their true shares. Some salts and complexes are drawn in separate pieces, as the source files them; their charges need not balance. Where a structure was tested more than once in an assay, its records may differ in their call. Active and inactive are the calls of the source. Cut-off read from the data, not from the text of the source: active = growth inhibition above about 70%; inactive = the rest.

As for `Cc1c2ccccc2cc2ccccc12.O=[N+]([O-])c1cc([N+](=O)[O-])c(O)c([N+](=O)[O-])c1`, the growth inhibition is inactive: 1% (at 1.2 µM); inactive: 9% (at 3.7 µM); inactive: 28% (at 11.0 µM); active: 79% (at 33.0 µM); active: 97% (at 100.0 µM).

As to `Nc1ccccc1.O=[N+]([O-])c1cc([N+](=O)[O-])cc([N+](=O)[O-])c1`, the growth inhibition is inactive: 1% (at 1.2 µM); inactive: 8% (at 3.7 µM); inactive: 69% (at 11.0 µM); active: 99% (at 33.0 µM); active: 99% (at 100.0 µM).

On to `[Au].[C-]#N.[C-]#N`, for which the growth inhibition (at 1.2 µM) is inactive: 5%; the growth inhibition (at 3.7 µM) is inactive: 2%; the growth inhibition (at 11.0 µM) is inactive: -20%; the growth inhibition (at 33.0 µM) is inactive: 41%; the growth inhibition (at 100.0 µM) is inactive: 8%.

As to `COc1ccccc1N.O=[N+]([O-])c1cc([N+](=O)[O-])cc([N+](=O)[O-])c1`, the growth inhibition was inactive: 0% (at 1.2 µM); inactive: 13% (at 3.7 µM); active: 78% (at 11.0 µM); active: 99% (at 33.0 µM); active: 99% (at 100.0 µM).

As for `Cc1ccc2ccc3ccc4ccccc4c3c2c1.O=C1c2cc([N+](=O)[O-])ccc2-c2c1cc([N+](=O)[O-])cc2[N+](=O)[O-]`, the growth inhibition is, setting by setting: (at 1.2 µM) inactive: 7%; (at 3.7 µM) inactive: 18%; (at 11.0 µM) inactive: 44%; (at 33.0 µM) active: 71%; (at 100.0 µM) active: 83%.

With `O=[N+]([O-])C(F)(COCC(O)CO)[N+](=O)[O-]` (stereo not given), the growth inhibition was inactive: 56% (at 1.2 µM); active: 79% (at 3.7 µM); active: 85% (at 11.0 µM); active: 93% (at 33.0 µM); active: 94% (at 100.0 µM).

As for `Cc1cc2ccccc2cc1C.O=[N+]([O-])c1cc([N+](=O)[O-])cc([N+](=O)[O-])c1`, the growth inhibition reads like this: (at 1.2 µM) inactive: -1%; (at 3.7 µM) inactive: -3%; (at 11.0 µM) inactive: 0%; (at 33.0 µM) inactive: 14%; (at 100.0 µM) inactive: 55%.

With `[Au+].[N-]=[N+]=N.c1ccc([PH+](c2ccccc2)c2ccccc2)cc1`, the growth inhibition is, setting by setting: (at 1.2 µM) inactive: 14%; (at 3.7 µM) active: 92%; (at 11.0 µM) active: 98%; (at 33.0 µM) active: 92%; (at 100.0 µM) active: 88%.
